Data on 16 molecules can be found in patent publication EP4563146A1 (IRBM S.P.A., priority 2023, dated 2025).

Like-named read-outs stand apart in the source and are kept apart here.

In test [1] the target is DEN2V NS2B-G4SG4-NS3 serine protease (Dengue virus type 2, UniProt Q91H74). The test can be described thus: DEN2V protease inhibition assay.
Test [2] concerns the target DEN1V NS2B-G4SG4NS3 serine protease (Dengue virus type 1, UniProt P17763). The test can be described thus: DEN1V protease inhibition assay.
Test [3] addresses DEN4V NS2B-G4SG4NS3 serine protease (Dengue virus type 4, UniProt P09866). The test can be described thus: DEN4V protease inhibition assay.
In test [4] the target is DEN3V NS2B-G4SG4NS3 serine protease (Dengue virus type 3, UniProt Q6YMS4). The test can be described thus: DEN3V protease inhibition assay.
[5] abbreviates: read-out: Dengue 2 - NS3 protease.
Where [6] appears, read: read-out: Dengue 1 - NS3 protease.
Where [7] appears, read: read-out: Dengue 4 - NS3 protease.
[8] abbreviates: read-out: Dengue 3 - NS3 protease.

Turning to `COc1ncc(-c2ccc(C[n+]3cc([N-]C(=O)Nc4cc(NC(C)=O)cc(C(F)(F)F)c4)on3)cc2)c(C)n1` [Example 11], the IC50 is 0.1 to 1 µM in test [1] (setting [5]), over 20 µM in test [2] (setting [6]), 1 to 20 µM in test [3] (setting [7]) and 1 to 20 µM in test [4] (setting [8]).
With `COc1ncc(-c2ccc(C[n+]3cc([N-]C(=O)Nc4cc(NC(=O)Cc5ccccc5)cc(C(F)(F)F)c4)on3)nc2)c(C)n1` [Example 13, (3-((5-(2-Methoxy-4-methylpyrimidin-5-yl)pyridin-2-yl)methyl)-1,2,3-oxadiazol-3-ium-5-yl)((3-(2-phenylacetamido)-5-(trifluoromethyl)phenyl)carbamoyl)amide], the IC50 in test [1] is under 0.1 µM; in test [2], 0.1 to 1 µM; in test [3] it was under 0.1 µM; in test [4], under 0.1 µM.
For `O=C(Cc1ccccc1)Nc1cc(NC(=O)[N-]c2c[n+](Cc3ccc(-c4cccc5c4CNC5)cn3)no2)cc(C(F)(F)F)c1` [Example 14, (3-((5-(Isoindolin-4-yl)pyridin-2-yl)methyl)-1,2,3-oxadiazol-3-ium-5-yl)((3-(2-phenylacetamido)-5-(trifluoromethyl)phenyl)carbamoyl)amide], the IC50 is under 0.1 µM in test [1], 1 to 20 µM in test [2], under 0.1 µM in test [3] and under 0.1 µM in test [4].
Consider `COc1ncc(-c2ccc(C[n+]3cc([N-]C(=O)Nc4cc(NC(=O)C5CCCC5)cc(C(F)(F)F)c4)on3)cc2)c(C)n1` [Example 18], for which the IC50 in test [1] (setting [5]) is under 0.1 µM; in test [2] (setting [6]) it was over 20 µM; in test [3] (setting [7]) it was 0.1 to 1 µM; in test [4] (setting [8]), 0.1 to 1 µM.
With `Cc1noc(C)c1-c1ccc([C@H](CN)[n+]2cc([N-]C(=O)Nc3cc(NC(=O)Cc4ccccc4)cc(C(F)(F)F)c3)on2)cc1` [Example 23, (R)-(3-(2-Amino-1-(4-(3,5-dimethylisoxazol-4-yl)phenyl)ethyl)-1,2,3-oxadiazol-3-ium-5-yl)((3-(2-phenylacetamido)-5-(trifluoromethyl)phenyl)-carbamoyl)amide], the IC50 in test [1] is under 0.1 µM; in test [2], 1 to 20 µM; in test [3] it was 0.1 to 1 µM; in test [4], under 0.1 µM.
Turning to `Cc1nc(N)ncc1-c1ccc(C[n+]2cc([N-]C(=O)Nc3cc(NC(=O)Cc4ccccc4)cc(C(F)(F)F)c3)on2)nc1` [Example 25, (3-((5-(2-Amino-4-methylpyrimidin-5-yl)pyridin-2-yl)methyl)-1,2,3-oxadiazol-3-ium-5-yl)((3-(2-phenylacetamido)-5-(trifluoromethyl)phenyl)carbamoyl)amide], the IC50 was under 0.1 µM in test [1], 0.1 to 1 µM in test [2], 1 to 20 µM in test [3] and 0.1 to 1 µM in test [4].
`N[C@H]1C[C@H]([n+]2cc([N-]C(=O)Nc3cc(NC(=O)Cc4ccccc4)cc(C(F)(F)F)c3)on2)C1` [Example 26, (3-((1R,3R)-3-Aminocyclobutyl)-1,2,3-oxadiazol-3-ium-5-yl)((3-(2-phenylacetamido)-5-(trifluoromethyl)phenyl)carbamoyl)amide]: the IC50 in test [1] was 0.1 to 1 µM; in test [2], over 20 µM; in test [3], 1 to 20 µM; in test [4], 1 to 20 µM.
Consider `O=C(Cc1ccccc1)Nc1cc(NC(=O)[N-]c2c[n+](Cc3ccccc3)no2)cc(C(F)(F)F)c1` [Example 28, (3-Benzyl-1,2,3-oxadiazol-3-ium-5-yl)((3-(2-phenylacetamido)-5-(trifluoro-methyl)phenyl)carbamoyl)amide], for which the IC50 is under 0.1 µM in test [1], over 20 µM in test [2], 1 to 20 µM in test [3] and 0.1 to 1 µM in test [4].
For the molecule `O=C([N-]c1c[n+](Cc2ccccn2)no1)Nc1cc(NC(=O)c2ccnn2-c2ccccc2)cc(C(F)(F)F)c1` [Example 34], the IC50 in test [1] (setting [5]) is under 0.1 µM; in test [2] (setting [6]) it was 1 to 20 µM; in test [3] (setting [7]) it was 1 to 20 µM; in test [4] (setting [8]), 0.1 to 1 µM.
As for `O=C(Cc1c[nH]c2cccnc12)Nc1cc(NC(=O)[N-]c2c[n+](Cc3ccccn3)no2)cc(C(F)(F)F)c1` [Example 36], the IC50 in test [1] (setting [5]) was under 0.1 µM; in test [2] (setting [6]), 1 to 20 µM; in test [3] (setting [7]), 0.1 to 1 µM; in test [4] (setting [8]), under 0.1 µM.
Turning to `CN(C)[C@H]1C[C@H]([n+]2cc([N-]C(=O)Nc3cc(NC(=O)Cc4ccccc4)cc(C(F)(F)F)c3)on2)C1` [Example 55, (3-((1R3R)-3-(Dimethylamino)cyclobutyl)-1,2,3-oxadiazol-3-ium-5-yl)((3-(2-phenyl-acetamido)-5-(trifluoromethyl)phenyl)-carbamoyl)amide], the IC50 in test [1] was 0.1 to 1 µM; in test [2], over 20 µM; in test [3] it was over 20 µM; in test [4], 1 to 20 µM.
For the molecule `NCc1ccc(C[n+]2cc([N-]C(=O)Nc3cc(NC(=O)Cc4ccccc4)cc(C(F)(F)F)c3)on2)cc1` [Example 56, (3-(4-(Aminomethyl)benzyl)-1,2,3-oxadiazol-3-ium-5-yl)((3-(2-phenylacetamido)-5-(trifluoromethyl)phenyl)carbamoyl)amide], the IC50 in test [1] was under 0.1 µM; in test [2] it was 1 to 20 µM; in test [3] it was 0.1 to 1 µM; in test [4], under 0.1 µM.
Turning to `O=C(Cc1ccccc1)Nc1cc(Cl)cc(NC(=O)[N-]c2c[n+](Cc3ccccn3)no2)c1` [Example 58, ((3-Chloro-5-(2-phenylacetamido)phenyl)carbamoyl)(3-(pyridin-2-ylmethyl)-1,2,3-oxadiazol-3-ium-5-yl)amide], the IC50 is 0.1 to 1 µM in test [1], over 20 µM in test [2], over 20 µM in test [3] and 1 to 20 µM in test [4].
As to `NC[C@H]1CC[C@@H]([n+]2cc([N-]C(=O)Nc3cc(NC(=O)Cc4ccccc4)cc(C(F)(F)F)c3)on2)CC1` [Example 59, (3-((1S,4S)-4-(Aminomethyl)cyclohexyl)-1,2,3-oxadiazol-3-ium-5-yl)((3-(2-phenyl-acetamido)-5-(trifluoromethyl)phenyl)-carbamoyl)amide], the IC50 in test [1] is under 0.1 µM; in test [2], 1 to 20 µM; in test [3], 1 to 20 µM; in test [4], 0.1 to 1 µM.
For `O=C(Cc1ccccc1)Nc1cc(NC(=O)[N-]c2c[n+]([C@H]3CC[C@@H](CN4C(=O)c5ccccc5C4=O)CC3)no2)cc(C(F)(F)F)c1` [Example 60, (3-((1S,4S)-4-((1,3-Dioxoisoindolin-2-yl)methyl)cyclohexyl)-1,2,3-oxadiazol-3-ium-5-yl)((3-(2-phenylacetamido)-5-(trifluoromethyl)-phenyl)carbamoyl)amide], the IC50 was 0.1 to 1 µM in test [1], over 20 µM in test [2], over 20 µM in test [3] and 1 to 20 µM in test [4].
For `CN(C)C[C@H]1CC[C@@H]([n+]2cc([N-]C(=O)Nc3cc(NC(=O)Cc4ccccc4)cc(C(F)(F)F)c3)on2)CC1` [Example 61, (3-((1S,4S)- -4-((Dimethylamino)methyl)cyclohexyl)-1,2,3-oxadiazol-3-ium-5-yl)((3-(2-phenylacetamido)-5-(trifluoromethyl)phenyl)carbamoyl)amide], the IC50 was under 0.1 µM in test [1], over 20 µM in test [2], 1 to 20 µM in test [3] and 0.1 to 1 µM in test [4].
